Screens from PubChem.
Hits are enriched below; roughly 1.3% of the tested compounds scored in any of these assays.
12-LOX inh: ALOX12 (human) lipoxygenase inhibition | P18054 | purified 12hLO, xylenol orange hydroperoxide absorbance | Potency, µM (series often up to 108 µM), actives largely listed as inhibitors | 580,000 tested, 1.1% active | AID 1671190
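Purified human 12hLO at 150 nM in 25 mM Hepes, 0.01% Triton X-100, pH 7.0, preincubated 15 min at room temperature with compound. Reaction started with 40 uM arachidonic acid, 30 min at room temperature. Hydroperoxide measured by Fe-xylenol orange, 573/405 nm absorbance ratio.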
ERG-DNA inh: ERG Ets/DNA interaction inhibition. fluorescence polarization, His-ERG Ets domain / labelled DNA. Potency, µM (highest dose often 76.9 µM), most hits filed as inhibitors. P11308. AID 624246. 370,000 tested, 0.028% active; active = well fitted inhibition curve with a large enough effect in the polarisation, with a control signal flat; inconclusive = small, poorly fitted or top-dose-only effect, or effect the other way, or a change in a side signal; inactive = no such curve, though single readings can be large or run the other way; the % refers to the polarisation;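 note: polarization taken with two DNA probes labelled with fluorescein and Texas red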
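His-tagged ERG Ets domain (1 uM in the protein solution; 300mM KCl, 50mM Tris-HCl, 1mM EDTA, 1mM DTT, pH 7.5) received compound, then a probe mix of 5 nM fluorescein-DNA and 100nM Texas-615-DNA. Fluorescence polarization was read for both dyes.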
miR-21 reporter: miR-21 reporter, rising signal; HeLa miR-21 FLuc reporter, luciferase, 48 h; Potency, µM (titrated, usually from 38.3 µM); AID 2288; 340,000 tested, under 10 active; active = well fitted rising curve with a large enough effect; inconclusive = small, poorly fitted or top-dose-only effect; inactive = no such curve, though single readings can be large or run the other way;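 further: miR-21 action dims this reporter so a rising signal means less miR-21 action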
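Compounds were titrated across several concentrations (up to approximately 40 uM) and incubated 48 hours with HeLa miR-21-FLuc reporter cells (miR-21 target sequence downstream of FLuc, endogenous miR-21). Readout was firefly luciferase luminescence after lytic detection reagent.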
Giardia kill: kills Giardia lamblia; activity change, % at 7.66 µM, hits read low; 340,000 tested, 0.15% active; Giardia lamblia trophozoite viability; AID 540267; in the data active = activity change below about -80%; inconclusive = between about -30% and that limit;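 note: parasites exposed to compound for two days anaerobically before the ATP read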
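Luminescence from cellular ATP indicates surviving trophozoites (100 cells/well) following 48 hrs anaerobic compound treatment at 37 deg C; signal develops 15-30 min at room temperature.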
PTHR1 ag: activates the human parathyroid hormone receptor PTHR1 | Q03431 | 410,000 tested, 0.075% active | HEK293 GP2 PTHR1 cells, GloSensor cAMP luminescence, 1 h | Potency, µM (titrated, usually from 115 µM), actives largely listed as activators | AID 743266; note: nearly all actives have a fitted effect of over 55% in size
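HEK-293-derived GP2 cells expressing PTHR1 and a GloSensor cAMP reporter, 3,000/well, plated overnight, given luciferin plus IBMX (each 0.5 mM as added) for 1 h at 37 °C, then compound for 1 h at 37 °C. Luminescence was read after 15 min at room temperature.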
PINK1 modulator: changes PINK1 expression; PINK1 immunofluorescence, high-content cytometry, 24 h; Potency, µM (doses to about 76.6 µM), most hits filed as activators; 410,000 tested, 0.2% active; AID 624263; active = well fitted activation curve with a large enough effect; inconclusive = small, poorly fitted or top-dose-only effect; cell line not stated here; note: nearly all actives have a fitted effect of over 65% in size
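Cells are seeded, rested 12 hours, then given compound at five concentrations or DMSO for 24 hours. After fixation, blocking and antibody staining, PINK1 amount and mitochondrial localization are scored; CCCP serves as control.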
Large screens that a line does not name were inactive; ! = repeats disagree. Unless noted, calls come from the whole dose curve; as a rule, active = well fitted curve in the direction sought with a large enough effect; inconclusive = small, poorly fitted or top-dose-only effect, or another doubt; inactive = no such curve, though single readings can be large; an effect the other way counts as inactive or inconclusive.

C/C(CCc1oc2ccc(Br)cc2c1-c1ccc(C)o1)=N\O	12-LOX inh 11.2µM (no result: ERG-DNA inh, miR-21 reporter, Giardia kill, PTHR1 ag, PINK1 modulator)
CCOC(=O)CSc1cc(CS(C)(=O)=O)nc(-c2ccccn2)n1	none
O=C1CC(c2ccccc2Oc2cccc(Cl)c2)C(n2cncn2)C(=O)C1C1NCCc2ccccc21 (stereo not given)	12-LOX inh 31.6µM
Cc1ccc2c3c(c(SCC(=O)Nc4nonc4C)nc2c1)CCCC3	PINK1 modulator 10µM
Cc1cccc(NC(=O)CN2CCN(C(=O)C3CCCO3)CC2)c1C (stereo not given)	none
Cc1ccc(S(=O)(=O)N2C[C@H]3n4c(=O)ccc(=O)n4C[C@H](OC(=O)NCc4ccccc4F)[C@@]3(O)C2)cc1	none (no result: ERG-DNA inh, miR-21 reporter, Giardia kill)
O=C1NC2(CCN(Cc3ccc(F)cc3)CC2)COc2ccccc21	none (no result: ERG-DNA inh, miR-21 reporter, Giardia kill, PTHR1 ag, PINK1 modulator)
O=C1NC2(CCN(CC3CCCCC3)CC2)COc2ccccc21	12-LOX inh 63.1µM (no result: ERG-DNA inh, miR-21 reporter, Giardia kill, PTHR1 ag, PINK1 modulator)
COc1ccc(C(=O)NC(C)c2nnc(SCc3ccc(Cl)c(Cl)c3)n2C)cc1 (stereo not given)	12-LOX inh 3.98µM
Cc1coc(NC(=O)CSc2nc(-c3ccc(Cl)cc3)cc(C(F)(F)F)c2C#N)n1	none
COc1ccc(-c2cc(C(F)(F)F)c(C#N)c(SCC(=O)Nc3nc(C)co3)n2)cc1	PINK1 modulator 8.91µM
CCCCOc1ccc(Cc2n[nH]c(=S)n2N)cc1	12-LOX inh 8.91µM
Cc1ccc(OCc2n[nH]c(=S)n2N)cc1C	12-LOX inh inconclusive
Nn1c(=S)[nH]nc(Cc2ccc(O)cc2)c1=O	12-LOX inh inconclusive
COc1ccc(Cc2n[nH]c(=S)n(N)c2=O)cc1	12-LOX inh 25.1µM
CCOc1ccccc1NC(=O)N1CCCC1C(=O)Nc1ccc(NC(C)=O)cc1 (stereo not given)	none
C=CCOc1ccccc1N	12-LOX inh 5.62µM (no result: ERG-DNA inh, miR-21 reporter, Giardia kill, PTHR1 ag, PINK1 modulator)
CCCOc1ccc(/C(O)=C2\C(=O)C(=O)NC2c2ccc(Cl)cc2)cc1 (stereo not given)	none (no result: ERG-DNA inh, miR-21 reporter, Giardia kill, PTHR1 ag, PINK1 modulator)
COc1ccc(/C(O)=C2\C(=O)C(=O)NC2c2ccc(Cl)cc2)cc1F (stereo not given)	12-LOX inh 11.2µM (no result: ERG-DNA inh, miR-21 reporter, Giardia kill, PTHR1 ag, PINK1 modulator)
O=C(/C=C/c1ccco1)OCc1nnc(-c2ccc(Cl)cc2)o1	12-LOX inh 44.7µM
CCNC(=S)N/N=C/c1cc(C)ccc1C	12-LOX inh 39.8µM
CC(C)N1CC(C(=O)Nc2ccc(Cl)c([N+](=O)[O-])c2)CC1=O (stereo not given)	none
Cc1ccc(NNS(=O)(=O)c2ccc(C)cc2)cc1	12-LOX inh 2.82µM
Cc1ccc(S(=O)(=O)N/N=C/c2ccccc2O)cc1	none
Cc1ccc(S(=O)(=O)NN=CC=CC=NNS(=O)(=O)c2ccc(C)cc2)cc1	12-LOX inh 3.98µM (no result: ERG-DNA inh, miR-21 reporter, Giardia kill)
NCC(c1ccc(Cl)cc1Cl)c1c[nH]c2ccccc12 (stereo not given)	12-LOX inh inconclusive, miR-21 reporter inconclusive
CCCCCCCCCCCC1=C(O)C(=O)C=C(O)C1=O	12-LOX inh 3.43µM! (no result: miR-21 reporter)
COC1=CC(=O)C(O)=C(CCCCCCC/C=C/CCCCCCCC2=C(O)C(=O)C=C(OC)C2=O)C1=O	PINK1 modulator inconclusive (no result: 12-LOX inh, miR-21 reporter)
O=C(CSc1ccc(-c2ccc(F)cc2)nn1)NC1CCCCC1	none
CCC(O)CC(C(=O)NNc1ccccc1)C(=O)NNc1ccccc1 (stereo not given)	12-LOX inh 11.2µM
CC(C)Oc1cccc(C(=O)NC(=S)Nc2ccccc2)c1	12-LOX inh 22.4µM
CCCOc1cccc(C(=O)NC(=S)Nc2ccccc2)c1	12-LOX inh 15.8µM
CC(C)C(=O)NC(=S)Nc1ccc(NC(=O)c2cccc(Cl)c2)cc1	12-LOX inh 15.8µM (no result: ERG-DNA inh, miR-21 reporter, Giardia kill, PTHR1 ag, PINK1 modulator)
CCCOc1cccc(C(=O)NC(=S)Nc2cccc(NC(=O)c3ccccc3Cl)c2)c1	12-LOX inh 12.6µM
CCC(=O)Nc1cccc(NC(=S)NC(=O)c2ccccc2Cl)c1	none
Cc1ccc(-c2ncc(C(=O)N3CCC(Nc4ncccn4)CC3)c(=O)[nH]2)cc1	none (no result: ERG-DNA inh, miR-21 reporter, Giardia kill, PTHR1 ag, PINK1 modulator)
Cc1cc(C)cc(Nc2c(F)c(F)c(F)c(F)c2C(=O)O)c1	12-LOX inh inconclusive
